Apparent affinities of Ab-14 variants for a coronavirus HR2 peptide

Target: peptide PDVDLGDISGINAS, taken from heptad repeat 2 (HR2) of SARS-CoV-2 spike.

Each scFv is VH, a 15-residue (Gly4Ser)3 linker, VL, as in the parent Ab-14, and differs from it in the CDRs of the heavy chain only.
VH: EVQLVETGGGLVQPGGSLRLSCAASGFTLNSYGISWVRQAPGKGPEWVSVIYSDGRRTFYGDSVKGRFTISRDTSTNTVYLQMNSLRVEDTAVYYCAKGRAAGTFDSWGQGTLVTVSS
VL: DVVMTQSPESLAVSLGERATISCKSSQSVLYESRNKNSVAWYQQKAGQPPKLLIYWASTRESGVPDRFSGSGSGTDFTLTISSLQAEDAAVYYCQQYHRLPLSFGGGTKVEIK

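In library AAYL49, one, two or three CDR residues were substituted; doubles and triples were drawn at random. In AlphaSeq, yeast of one mating type display the scFv and yeast of the other type display the target. Binding brings cells together so that they mate, and sequencing counts the barcode pairs among the diploids. A regression on co-assayed BCL2-family reference pairs converts the normalised counts of each replicate to an apparent Kd. There are three technical replicates.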

Positions count from residue 1 of the parent VH; I34V puts V in place of I.
Numbers give log10(Kd / nM), so 0 is 1 nM and 3 is 1 µM. Smaller is tighter.
A pair that was not seen in that replicate is written "nd"; this usually means weak binding, but a binder can also be missed.

| # | changes | replicates, log10 nM | control signals |
|---|---|---|---|
| 1 | I34V+I51V+T58K | 3.27 / 2.95 / 3.32 | 2 of 9 (4.30) |
| 2 | G26I+V50T+D54F | nd / nd / 3.34 | 1 of 9 (4.06) |
| 3 | R100S+F105E | 5.51 / nd / nd | 2 of 9 (4.79) |
| 4 | I34V+D54A+T104I | 4.59 / 3.92 / 6.11 | 6 of 9 (4.45) |
| 5 | N30P+Y32V+D62H | nd / nd / nd | 0 of 9 |
| 6 | T28W+Y52N+R56I | 5.49 / nd / nd | 1 of 9 (3.78) |
| 7 | L29Q+G33P+D54P | nd / nd / 4.52 | 3 of 9 (3.61) |
| 8 | N30K+S31V+S107P | nd / nd / nd | 0 of 9 |
| 9 | G33M+G61D+T104V | nd / nd / nd | 0 of 9 |
| 10 | G55C+Y60F+A101G | nd / nd / nd | 0 of 9 |
| 11 | Y32C+R56V+G61P | 2.78 / 2.56 / nd | 1 of 9 (3.44) |
| 12 | D54T+K65G+D106K | nd / 2.92 / nd | 1 of 9 (4.84) |
| 13 | F27P+R56C+G61T | 1.76 / 1.94 / 2.02 | 4 of 9 (4.35) |
| 14 | S35R+S53W+A101W | nd / nd / nd | 0 of 9 |
| 15 | L29S+G103T+S107T | nd / 3.65 / nd | 2 of 9 (4.22) |
| 16 | I34Y+V50K+Y52Q | nd / nd / nd | 1 of 9 (3.25) |
| 17 | F27Y+S63V+F105C | nd / nd / nd | 0 of 9 |
| 18 | S53W+S63H+D106C | 4.74 / nd / 4.79 | 2 of 9 (4.10) |
| 19 | L29K+G33L+Y60S | nd / nd / nd | 0 of 9 |
| 20 | F59M+S63R+R100M | 1.97 / 2.10 / 2.12 | 1 of 9 (3.38) |
| 21 | K65R+G99E | nd / nd / nd | 0 of 9 |
| 22 | T58Q+G99M | nd / nd / nd | 0 of 9 |
| 23 | I51T+Y60S+D106W | 3.11 / nd / nd | 0 of 9 |
| 24 | F27A+G61S | 0.31 / 0.72 / 0.63 | 0 of 9 |
| 25 | Y60M+G99H+G103P | nd / nd / 3.90 | 3 of 9 (4.67) |
| 26 | L29P+F105P | nd / nd / nd | 0 of 9 |
| 27 | F27Y+G99E+D106Y | nd / nd / 2.63 | 0 of 9 |
| 28 | S31V+D54M+G55L | nd / nd / nd | 0 of 9 |
| 29 | S31V+S63R+G99P | 1.16 / 2.33 / nd | 0 of 9 |
| 30 | G26R+Y32E | nd / nd / nd | 0 of 9 |
| 31 | G33R+R56M+T104H | nd / nd / nd | 0 of 9 |
| 32 | L29S+S53R+D106K | nd / nd / nd | 0 of 9 |
| 33 | L29F+G103Y+F105Y | nd / nd / nd | 1 of 9 (2.62) |

The opening 4 entries, copied out:

| changes | replicates, log10 nM | control signals |
|---|---|---|
| I34V+I51V+T58K | 3.27 / 2.95 / 3.32 | 2 of 9 (4.30) |
| G26I+V50T+D54F | nd / nd / 3.34 | 1 of 9 (4.06) |
| R100S+F105E | 5.51 / nd / nd | 2 of 9 (4.79) |
| I34V+D54A+T104I | 4.59 / 3.92 / 6.11 | 6 of 9 (4.45) |

Parent in this assay: reference entry 0.65, copy in this library 4.11 (one replicate of three).
As a blank, each scFv also met three strains without target: over library AAYL49, 15% of these pairings were detected, typically at 4.06 and seldom below 2.83. For each scFv, signals with the empty controls are counted beside the result, with their mean in brackets.

Values reported by Engelhart et al. 2022, doi:10.1038/s41597-022-01779-4 (FLAb copy).